Data published in article PMC3849035 (MedChemComm, 2011).

Legend:
HEL cells = conditions: human
HeLa cells = conditions: human
Vero cells = conditions: African green monkey
MDCK cells = conditions: dog

For `NC(=O)c1ncn([C@@H]2O[C@H](CO)[C@@H](O)[C@H]2O)n1` [Ribavirin, reference compound], the “MCC (minimal cytotoxic concentration)” value (HEL cells) was over 250 µM, the “MCC (minimal cytotoxic concentration)” value (HeLa cells) was over 250 µM and the “MCC (minimal cytotoxic concentration)” value (Vero cells) was over 250 µM. For the same compound, the “MCC (minimal cytotoxic concentration)” value (MDCK cells) was over 100 µM.
